Source: ChEMBL document CHEMBL4715690, “The indole alkaloid meleagrin, from the olive tree endophytic fungus Penicillium chrysogenum, as a novel lead for the control of c-Met-dependent breast cancer proliferation, migration and invasion” (Bioorg Med Chem, 2016)

How the values were obtained:
Homo sapiens = organism: Homo sapiens; experiment: Selectivity index, ratio of IC50 for recombinant human His-tagged c-MET expressed in baculovirus expression system to IC50 for recombinant human His-tagged c-MET M1250T mutant expressed in baculovirus expression system
MDA-MB-231 = experiment: Antimigratory activity against human MDA-MB-231 cells assessed as inhibition of HGF-induced cell migration incubated for 24 hrs by Giemsa-staining based wound healing assay; assay type: functional

## C=CC(C)(C)[C@@]12C=C(O)C(=O)N3/C(=C/c4cnc[nH]4)C(=O)N[C@]31N(OC)c1ccccc12
Homo sapiens
  Ratio IC50: 2
MDA-MB-231
  inhibition: Dose-dependent effect
